Data published in publication PMC6273627, “Extended N-Arylsulfonylindoles as 5-HT6 Receptor Antagonists: Design, Synthesis & Biological Evaluation” (Molecules, 2016).

Sequences of proteins named here, by UniProt entry; tags and fusion partners are left off.
UniProt P50406, whole entry: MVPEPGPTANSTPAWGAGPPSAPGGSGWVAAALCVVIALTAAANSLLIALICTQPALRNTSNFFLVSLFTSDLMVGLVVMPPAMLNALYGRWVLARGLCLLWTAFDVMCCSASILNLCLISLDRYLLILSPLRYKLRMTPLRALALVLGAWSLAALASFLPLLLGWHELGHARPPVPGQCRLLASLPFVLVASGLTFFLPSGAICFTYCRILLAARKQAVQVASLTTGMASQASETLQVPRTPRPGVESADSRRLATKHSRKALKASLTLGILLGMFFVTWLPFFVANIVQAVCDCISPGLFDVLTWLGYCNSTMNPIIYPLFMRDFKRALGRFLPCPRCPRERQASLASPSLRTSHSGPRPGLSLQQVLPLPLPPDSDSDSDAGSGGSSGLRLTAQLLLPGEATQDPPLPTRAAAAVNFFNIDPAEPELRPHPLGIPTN

Experiments:
[1] = biological target: T1, recombinant human 5-HT6 receptor (Homo sapiens, UniProt P50406); settings: experimental value repeated in Table 5 beside docking scores (value of the tested compound, listed per docked stereoisomer)
[2] = biological target: T1, recombinant human 5-HT6 receptor; assay: biochemical

Compound | pKi [1] | Ki [2] [nM]
Cc1ccc(S(=O)(=O)n2cc(C(=O)CN3CCN(c4ccccn4)CC3)c3ccccc32)cc1 [Compound 3a, 2-(4-(Pyridyl-2-yl)piperazin-1-yl)-1-(1-tosyl-1H-indol-3-yl)ethanone] | 5.75 | 1780
COc1ccccc1N1CCN(CC(=O)c2cn(S(=O)(=O)c3ccc(C)cc3)c3ccccc23)CC1 [Compound 3b, 2-(4-(2-Methoxyphenyl)piperazin-1-yl)-1-(1-tosyl-1H-indol-3-yl)ethanone] | 4.97 | 10700
Cc1ccc(S(=O)(=O)n2cc(C(=O)CN3CCN(c4ncccn4)CC3)c3ccccc32)cc1 [Compound 3c, 2-(4-(Pyrimidin-2-yl)piperazin-1-yl)-1-(1-tosyl-1H-indol-3-yl)ethanone] | 6.11 | 776
O=C(CN1CCN(c2ncccn2)CC1)c1cn(S(=O)(=O)c2ccc(Cl)cc2)c2ccccc12 [Compound 3d, 1-(1-(4-Chlorophenylsulfonyl)-1H-indol-3-yl)-2-(4-(pyrimidin-2-yl)piperazin-1-yl)ethanone] | 5.07 | 8510
O=C(CN1CCN(c2ncccn2)CC1)c1cn(S(=O)(=O)c2ccc(F)cc2)c2ccccc12 [Compound 3e, 1-(1-(4-Fluorophenylsulfonyl)-1H-indol-3-yl)-2-(4-(pyrimidin-2-yl)piperazin-1-yl)ethanone] | 4.72 | 19100
O=C(CN1CCN(c2ccccn2)CC1)c1cn(S(=O)(=O)c2ccc(I)cc2)c2ccccc12 [Compound 3f, 1-(1-(4-Iodophenylsulfonyl)-1H-indol-3-yl)-2-(4-(pyridin-2-yl)piperazin-1-yl)ethanone] | 6.1 | 794
COc1ccccc1N1CCN(CC(=O)c2cn(S(=O)(=O)c3ccc(I)cc3)c3ccccc23)CC1 [Compound 3g, 1-(1-(4-Iodophenylsulfonyl)-1H-indol-3-yl)-2-(4-(2-methoxyphenyl)piperazin-1-yl)ethanone] | 5.72 | 1910
O=C(CN1CCN(c2ncccn2)CC1)c1cn(S(=O)(=O)c2ccc(I)cc2)c2ccccc12 [Compound 3h, 1-(1-(4-Iodophenylsulfonyl)-1H-indol-3-yl)-2-(4-(pyrimidin-2-yl)piperazin-1-yl)ethanone] | 6.38 | 417
O=C(CN1CCN(c2ccccn2)CC1)c1cn(S(=O)(=O)c2cccc3ccccc23)c2ccccc12 [Compound 3i, 1-(1-(Naphthalen-1-ylsulfonyl)-1H-indol-3-yl)-2-(4-(pyridin-2-yl)piperazin-1-yl)ethanone] | 5.91 | 1230
COc1ccccc1N1CCN(CC(=O)c2cn(S(=O)(=O)c3cccc4ccccc34)c3ccccc23)CC1 [Compound 3j, 2-(4-(2-Methoxyphenyl)piperazin-1-yl)-1-(1-(naphthalen-1-ylsulfonyl)-1H-indol-3-yl)ethanone] | 5.9 | 1260
O=C(CN1CCN(c2ncccn2)CC1)c1cn(S(=O)(=O)c2cccc3ccccc23)c2ccccc12 [Compound 3k, 1-(1-(Naphthalen-1-ylsulfonyl)-1H-indol-3-yl)-2-(4-(pyrimidin-2-yl)piperazin-1-yl)ethanone] | 5.85 | 1410
COc1ccc(S(=O)(=O)n2cc(C(=O)CN3CCOCC3)c3ccccc32)cc1 [Compound 3l, 1-(1-(4-Methoxyphenylsulfonyl)-1H-indol-3-yl)-2-morpholinoethanone] | 6.35 | 447
O=C(CN1CCOCC1)c1cn(S(=O)(=O)c2cc(F)cc(F)c2)c2ccccc12 [Compound 3m, 1-(1-(3,5-Difluorophenylsulfonyl)-1H-indol-3-yl)-2-morpholinoethanone] | 4.65 | 22400
Cc1ccc(S(=O)(=O)n2cc([C@@H](O)CN3CCN(c4ccccn4)CC3)c3ccccc32)cc1 [Compound 4a_r] | 6.32 | –
Cc1ccc(S(=O)(=O)n2cc([C@H](O)CN3CCN(c4ccccn4)CC3)c3ccccc32)cc1 [Compound 4a_s] | 6.32 | –
COc1ccccc1N1CCN(CC(O)c2cn(S(=O)(=O)c3ccc(C)cc3)c3ccccc23)CC1 (stereo not shown) [Compound 4b, 2-(4-(2-Methoxyphenyl)piperazin-1-yl)-1-(1-tosyl-1H-indol-3-yl)ethanol] | – | 13.5
COc1ccccc1N1CCN(C[C@H](O)c2cn(S(=O)(=O)c3ccc(C)cc3)c3ccccc23)CC1 [Compound 4b_r] | 7.87 | –
COc1ccccc1N1CCN(C[C@@H](O)c2cn(S(=O)(=O)c3ccc(C)cc3)c3ccccc23)CC1 [Compound 4b_s] | 7.87 | –
Cc1ccc(S(=O)(=O)n2cc(C(O)CN3CCN(c4ncccn4)CC3)c3ccccc32)cc1 (stereo not shown) [Compound 4c, 2-(4-(Pyrimidin-2-yl)piperazin-1-yl)-1-(1-tosyl-1H-indol-3-yl)ethanol] | – | 851
Cc1ccc(S(=O)(=O)n2cc([C@@H](O)CN3CCN(c4ncccn4)CC3)c3ccccc32)cc1 [Compound 4c_r] | 6.07 | –
Cc1ccc(S(=O)(=O)n2cc([C@H](O)CN3CCN(c4ncccn4)CC3)c3ccccc32)cc1 [Compound 4c_s] | 6.07 | –
O=S(=O)(c1ccc(Cl)cc1)n1cc(C(O)CN2CCN(c3ncccn3)CC2)c2ccccc21 (stereo not shown) [Compound 4d, 1-(1-(4-Chlorophenylsulfonyl)-1H-indol-3-yl)-2-(4-(pyrimidin-2-yl)piperazin-1-yl)ethanol] | – | 3720
O=S(=O)(c1ccc(Cl)cc1)n1cc([C@@H](O)CN2CCN(c3ncccn3)CC2)c2ccccc21 [Compound 4d_r] | 5.43 | –
O=S(=O)(c1ccc(Cl)cc1)n1cc([C@H](O)CN2CCN(c3ncccn3)CC2)c2ccccc21 [Compound 4d_s] | 5.43 | –

Compound | pKi [1] | Ki [2] [nM]
O=S(=O)(c1ccc(F)cc1)n1cc(C(O)CN2CCN(c3ncccn3)CC2)c2ccccc21 (stereo not shown) [Compound 4e, 1-(1-(4-Fluorophenylsulfonyl)-1H-indol-3-yl)-2-(4-(pyrimidin-2-yl)piperazin-1-yl)ethanol] | – | 2190
O=S(=O)(c1ccc(F)cc1)n1cc([C@@H](O)CN2CCN(c3ncccn3)CC2)c2ccccc21 [Compound 4e_r] | 5.66 | –
O=S(=O)(c1ccc(F)cc1)n1cc([C@H](O)CN2CCN(c3ncccn3)CC2)c2ccccc21 [Compound 4e_s] | 5.66 | –
O=S(=O)(c1ccc(I)cc1)n1cc([C@@H](O)CN2CCN(c3ccccn3)CC2)c2ccccc21 [Compound 4f_r] | 6.43 | –
O=S(=O)(c1ccc(I)cc1)n1cc([C@H](O)CN2CCN(c3ccccn3)CC2)c2ccccc21 [Compound 4f_s] | 6.43 | –
COc1ccccc1N1CCN(CC(O)c2cn(S(=O)(=O)c3ccc(I)cc3)c3ccccc23)CC1 (stereo not shown) [Compound 4g, 1-(1-(4-Iodophenylsulfonyl)-1H-indol-3-yl)-2-(4-(2-methoxyphenyl)piperazin-1-yl)ethanol] | – | 18.6
COc1ccccc1N1CCN(C[C@H](O)c2cn(S(=O)(=O)c3ccc(I)cc3)c3ccccc23)CC1 [Compound 4g_r] | 7.73 | –
COc1ccccc1N1CCN(C[C@@H](O)c2cn(S(=O)(=O)c3ccc(I)cc3)c3ccccc23)CC1 [Compound 4g_s] | 7.73 | –
O=S(=O)(c1ccc(I)cc1)n1cc(C(O)CN2CCN(c3ncccn3)CC2)c2ccccc21 (stereo not shown) [Compound 4h, 1-(1-(4-Iodophenylsulfonyl)-1H-indol-3-yl)-2-(4-(pyrimidin-2-yl)piperazin-1-yl)ethanol] | – | 617
O=S(=O)(c1ccc(I)cc1)n1cc([C@@H](O)CN2CCN(c3ncccn3)CC2)c2ccccc21 [Compound 4h_r] | 6.21 | –
O=S(=O)(c1ccc(I)cc1)n1cc([C@H](O)CN2CCN(c3ncccn3)CC2)c2ccccc21 [Compound 4h_s] | 6.21 | –
O=S(=O)(c1cccc2ccccc12)n1cc([C@@H](O)CN2CCN(c3ccccn3)CC2)c2ccccc21 [Compound 4i_r] | 6.83 | –
O=S(=O)(c1cccc2ccccc12)n1cc([C@H](O)CN2CCN(c3ccccn3)CC2)c2ccccc21 [Compound 4i_s] | 6.83 | –
COc1ccccc1N1CCN(CC(O)c2cn(S(=O)(=O)c3cccc4ccccc34)c3ccccc23)CC1 (stereo not shown) [Compound 4j, 2-(4-(2-Methoxyphenyl)piperazin-1-yl)-1-(1-(naphthalen-1-ylsulfonyl)-1H-indol-3-yl)ethanol] | – | 14.8
COc1ccccc1N1CCN(C[C@H](O)c2cn(S(=O)(=O)c3cccc4ccccc34)c3ccccc23)CC1 [Compound 4j_r] | 7.83 | –
O=S(=O)(c1cccc2ccccc12)n1cc(C(O)CN2CCN(c3ncccn3)CC2)c2ccccc21 (stereo not shown) [Compound 4k, 1-(1-(Naphthalen-1-ylsulfonyl)-1H-indol-3-yl)-2-(4-(pyrimidin-2-yl)piperazin-1-yl)ethanol] | – | 603
O=S(=O)(c1cccc2ccccc12)n1cc([C@@H](O)CN2CCN(c3ncccn3)CC2)c2ccccc21 [Compound 4k_r] | 6.22 | –
O=S(=O)(c1cccc2ccccc12)n1cc([C@H](O)CN2CCN(c3ncccn3)CC2)c2ccccc21 [Compound 4k_s] | 6.22 | –
COc1ccc(S(=O)(=O)n2cc(C(O)CN3CCOCC3)c3ccccc32)cc1 (stereo not shown) [Compound 4l, 1-(1-(4-Methoxyphenylsulfonyl)-1H-indol-3-yl)-2-morpholinoethanol] | – | 891
COc1ccc(S(=O)(=O)n2cc([C@@H](O)CN3CCOCC3)c3ccccc32)cc1 [Compound 4l_r] | 6.05 | –
COc1ccc(S(=O)(=O)n2cc([C@H](O)CN3CCOCC3)c3ccccc32)cc1 [Compound 4l_s] | 6.05 | –
O=S(=O)(c1cc(F)cc(F)c1)n1cc(C(O)CN2CCOCC2)c2ccccc21 (stereo not shown) [Compound 4m, 1-(1-(3,5-Difluorophenylsulfonyl)-1H-indol-3-yl)-2-morpholinoethanol] | – | 7590
O=S(=O)(c1cc(F)cc(F)c1)n1cc([C@@H](O)CN2CCOCC2)c2ccccc21 [Compound 4m_r] | 5.12 | –
O=S(=O)(c1cc(F)cc(F)c1)n1cc([C@H](O)CN2CCOCC2)c2ccccc21 [Compound 4m_s] | 5.12 | –
